Publication PMC8564858, “Flavonoid-based inhibitors of the Phi-class glutathione transferase from black-grass to combat multiple herbicide resistance” (Organic & Biomolecular Chemistry, 2021)

Key:
MHR black-grass plants = details: three herbicide chemistries; cited from earlier work
wildtype AmGSTF1 = experiment: CDNB activity after 60 min incubation with NBD-Cl or NBD-SG (Table S3); type: biochemical, Alopecurus myosuroides; details: 100 µM, 60 min at 20 °C, diluted 1:100, activity towards CDNB
Cys120Val AmGSTF1 = experiment: as above; details: 100 µM, 60 min at 20 °C, diluted 1:100, activity towards CDNB

O=[N+]([O-])c1ccc(Cl)c2nonc12
Reversal of herbicide resistance (MHR black-grass plants): reversed resistance | Inhibition vs. DMSO control (wildtype AmGSTF1): 60% | Mean specific activity (wildtype AmGSTF1; mean ± SD, n = 3): 7.8 ± 1.1 nmol s-1 mg-1 protein | Inhibition vs. DMSO control (Cys120Val AmGSTF1): 18% | Mean specific activity (Cys120Val AmGSTF1; mean ± SD, n = 3): 21.1 ± 1.1 nmol s-1 mg-1 protein
